Reference: US12104178B2, “DHFR tunable protein regulation” (Obsidian Therapeutics, Inc., priority 2017, dated 2024)

Legend:
[1] = tested on: NK-92 cells; assay: NK-92 activation markers with IL2 (Table 85); format: cell-based
Protocol: The dependency of the NK-92 cells on cytokines for activation was tested. Cells were initially cultured for 3 days with IL2, following which cells were washed twice and cultured in media without IL2 for 7 hours. The cells were cultured for 18 hours in the presence of IL2 (100 μg/ml). NK-92 cell activation in response to cytokine treatment was evaluated by FACS analysis of a panel of markers whose increased expression is associated with NK activation. These include NKG2D, CD71, CD69; chemokine receptors such as CCR5, CXCR4, and CXCR3, Perform, Granzyme B and Interferon gamma (IFNg). Prior to FACS for IFNg, cells were cultured for 4 hours with Brefeldin A. IFNg levels were also measured in the media. NK cells respond to external stimuli such as cytokines in their environment through the phosphorylation of proteins JAK/STAT, ERK, and p38/MAPK pathways which are important for cell activation, signalling and differentiation pathways. The phosphorylation of AKT, STAT3 and STAT5 in response to cytokine addition was measured by FACS. Since phosphorylation events are transient NK-92 cells were treated with the cytokines for 15 or 60 minutes, prior to the analysis. The fold change in mean fluorescence intensities compared to untreated for IL2 treatment for select markers are presented in Table 85.

[2] = tested on: NK-92 cells; assay: Cytokine dependent proliferation of NK-92, Jurkat and SupT1 cells; format: cell-based; details: 3 days
Protocol: The dependency of immune cells on cytokines for proliferation was tested in NK-92 cells and T cell lines Jurkat cells and SupT1 cells. Cells were seeded at 40,000 per well and cultured in the presence of IL2 or IL15 for 3 days. […] Thus, NK-92 cells depend on cytokines for survival.
The dependency of immune cells on cytokines for proliferation was tested in NK-92 cells (natural killer cell line) and T cell lines Jurkat cells and SupT1 cells. Cells were seeded at 40,000 per well and cultured in the presence of IL2 or IL15 for 3 days. The number of NK-92 cells decreased with time in the untreated cells. […] Thus, NK-92 cells depend on cytokines for survival.

[3] = tested on: T cells; assay: IL12/IL2 effect on T cell expansion and IFNgamma positive CD4+/CD8+ T cells; format: cell-based, human; details: 14 days, CD3/CD28 stimulation
Description: The goal of the study was to determine the T cell stimulation regimen and dose of IL12 needed to maximize T cell persistence and T cell differentiation in vitro, to mimic an in vivo adoptive cell transfer therapy regimen. The study recapitulates the design of the adoptive cell therapy regimen wherein the T cells were initially exposed to the antigen in vitro which results in activation followed by a resting phase and finally in vivo transfer where the T cells encounter the antigen again. T cells were stimulated CD3/CD28 beads or soluble CD3/CD28 on day 0 and the CD3/CD28 stimulus was washed off at the end of 48 hours. Cells were treated with a dose of IL12 ranging from 0.01-1000 ng/mL. On day 9, the Th1 phenotype of the cells was evaluated by examining the frequency of IFNgamma positive CD4+ cells and CD8+ cells. […] On day 16, the Th1 phenotype was evaluated in both groups using FACS. […]
The effect of IL12 on T cell activation was measured by determining the frequency of IFNgamma positive CD4+ and CD8+ T cells. […] At day 9, cells were restimulated with soluble CD3/CD28 and the frequency of IFNgamma positive cells was determined by FACS. […] At day 16, the frequency of IFNgamma positive cells was measured. […] IFNgamma positive CD4 and CD8 cells were measured using FACS. […]

With “IL2: cytokine added to NK-92 cells and T cells” the “Fold change in MFI vs untreated, CD69” value ([1]; IL2 100 μg/ml, 18 h) was 1.60, the “Fold change in MFI vs untreated, CXCR4” value ([1]; IL2 100 μg/ml, 18 h) was 3.56 and the “Fold change in MFI vs untreated, Granzyme” value ([1]; IL2 100 μg/ml, 18 h) was 1.62. The “Fold change in MFI vs untreated, IFNg (cellular)” value ([1]; IL2 100 μg/ml, 18 h) was 1.15, the “Fold change in MFI vs untreated, Perforin” value ([1]; IL2 100 μg/ml, 18 h) was 1.72 and the “Fold change vs untreated, IFNg (Supernatant)” value ([1]; IL2 100 μg/ml, 18 h) was 7.43. For the same substance, the “Fold change in MFI vs untreated, pAKT” value ([1]; IL2, 15 mins) was 1.23, the “Fold change in MFI vs untreated, pSTAT3” value ([1]; IL2, 15 mins) was 1.19 and the “Fold change in MFI vs untreated, pSTAT5” value ([1]; IL2, 15 mins) was 1.90. The “Fold change in MFI vs untreated, pAKT” value ([1]; IL2, 60 mins) was 1.34, the “Fold change in MFI vs untreated, pSTAT3” value ([1]; IL2, 60 mins) was 1.38 and the NK-92 cell numbers [2] was “increased cell numbers”. For the same substance, the “Requirement for T cell expansion (FIG. 37A)” value [3] was “required for T cell expansion”.
